scFv variants of Ab-14 (heavy chain) against a SARS-CoV-2 spike peptide

Values reported by Engelhart et al. 2022, doi:10.1038/s41597-022-01779-4 (FLAb copy).

The target is the same throughout: PDVDLGDISGINAS, from the HR2 region of SARS-CoV-2 spike.

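The parent was found by panning a naive human phage display library on the peptide. Variants in AAYL49 differ from the parent at up to three CDR positions; double and triple changes were sampled at random. Affinity was read by AlphaSeq, a pooled yeast mating assay with surface-displayed partners. Mating (16 h, 30 °C) was followed by selection of diploids and sequencing of their barcodes. Each replicate has its own calibration line, from reference interactions of the BCL2 family. The assay was run in three technical replicates.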

Each scFv is VH, a 15-residue (Gly4Ser)3 linker, VL, as in the parent Ab-14, and differs from it in the CDRs of the heavy chain only.
VH: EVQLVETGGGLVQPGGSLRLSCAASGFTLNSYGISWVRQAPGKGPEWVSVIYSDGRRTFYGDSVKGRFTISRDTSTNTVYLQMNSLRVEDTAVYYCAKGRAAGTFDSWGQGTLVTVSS
VL: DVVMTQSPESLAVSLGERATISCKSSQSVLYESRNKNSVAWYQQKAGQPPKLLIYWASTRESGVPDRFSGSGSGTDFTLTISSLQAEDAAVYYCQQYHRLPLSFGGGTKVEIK

Changes read parent residue, position, new residue, counted from the first residue of the VH shown. Affinities are written as log10 Kd with Kd in nM; a lower number is a better binder. Replicates are averaged; those with no signal do not enter the mean. A pair that was not seen in that replicate is written "n.d."; this usually means weak binding, but a binder can also be missed.

changes | log10 Kd, replicates | mean log10 Kd (nM) | empty controls
S35Y R100G D106R | n.d. 3.64 3.13 | 3.39 | 2 of 9 (3.63)
G33N R56S D106C | n.d. n.d. n.d. | n.d. | 3 of 9 (2.89)
S31I D54C G103D | n.d. n.d. n.d. | n.d. | 0 of 9
S53L Y60K A102L | n.d. n.d. 4.83 | 4.83 | 1 of 9 (4.08)
G33S D54R T104K | n.d. n.d. n.d. | n.d. | 0 of 9
D54H G61V V64Y | 5.24 n.d. 4.32 | 4.78 | 5 of 9 (4.59)
G26Q S31E A101E | 4.05 n.d. 4.74 | 4.39 | 1 of 9 (3.20)
G26Q F59R T104A | 3.83 n.d. n.d. | 3.83 | 0 of 9
S31E G103V S107Q | -0.74 -0.31 -0.43 | -0.49 | 1 of 9 (2.09)
V64H K65S | n.d. n.d. n.d. | n.d. | 0 of 9
N30G G33E F59E | n.d. 4.28 n.d. | 4.28 | 0 of 9
N30W V50P F105W | 4.40 n.d. n.d. | 4.40 | 3 of 9 (4.41)
L29T R56L D62V | n.d. n.d. n.d. | n.d. | 0 of 9
S53E S63H D106G | n.d. n.d. n.d. | n.d. | 0 of 9
I34L G103L | 2.74 3.61 n.d. | 3.17 | 1 of 9 (4.30)
G99Q T104W S107R | n.d. n.d. n.d. | n.d. | 4 of 9 (4.58)
K65G R100M G103Q | n.d. n.d. n.d. | n.d. | 0 of 9
S35F V50S I51E | n.d. n.d. n.d. | n.d. | 5 of 9 (4.18)
I34C Y52T K65M | n.d. n.d. n.d. | n.d. | 0 of 9
Y32S S53P F105A | n.d. n.d. n.d. | n.d. | 3 of 9 (4.65)
S31R S107M | 1.12 1.04 0.91 | 1.03 | 1 of 9 (4.59)
S31V V50A S107Q | n.d. 5.19 n.d. | 5.19 | 1 of 9 (4.81)
T58R D62C F105N | n.d. n.d. n.d. | n.d. | 0 of 9
L29P R56P G103P | 5.19 4.72 6.39 | 5.44 | 5 of 9 (4.38)
I34C F59T | n.d. n.d. n.d. | n.d. | 2 of 9 (2.52)
S35E I51L S107G | n.d. n.d. n.d. | n.d. | 1 of 9 (4.74)
S53P F105S | 2.36 2.03 2.52 | 2.30 | 3 of 9 (4.02)
G103D T104A | 4.32 4.08 4.15 | 4.18 | 3 of 9 (3.86)
G26P R100F D106L | 1.57 1.49 1.46 | 1.51 | 3 of 9 (4.15)
S31F G55E R100K | n.d. 4.85 n.d. | 4.85 | 1 of 9 (3.98)
T28Y S31T G61V | 2.25 n.d. n.d. | 2.25 | 0 of 9
D62F S63N T104P | n.d. n.d. n.d. | n.d. | 0 of 9
G33E I34L | n.d. n.d. n.d. | n.d. | 0 of 9
G26Y Y32N | 1.53 1.49 1.68 | 1.57 | 6 of 9 (4.34)
F27N S63D K65T | 1.79 2.08 1.68 | 1.85 | 0 of 9
L29I G99D | 0.42 0.77 0.40 | 0.53 | 0 of 9
L29A K65A F105G | n.d. n.d. n.d. | n.d. | 2 of 9 (3.51)
T28I Y52H R100I | n.d. n.d. 4.19 | 4.19 | 0 of 9
S31M G33A I51L | 3.03 n.d. n.d. | 3.03 | 0 of 9
I51A Y60P D106W | 5.37 n.d. 4.38 | 4.88 | 1 of 9 (5.41)

Picked from the list: the 3 lowest averages where every replicate gave a value.

changes	log10 Kd, replicates	mean log10 Kd (nM)	empty controls
S31E G103V S107Q	-0.74 -0.31 -0.43	-0.49	1 of 9 (2.09)
L29I G99D	0.42 0.77 0.40	0.53	0 of 9
S31R S107M	1.12 1.04 0.91	1.03	1 of 9 (4.59)

For reference, the parent read 0.65 as the reference entry and 4.11 (one replicate of three) as a member of this library. Three control strains display no target. For library AAYL49, 15% of the pairings with them gave a signal, with a median of 4.06 and one signal in twenty below 2.83, so weak values seen in few replicates may be background. For each scFv, signals with the empty controls are counted beside the result, with their mean in brackets.